This note sets out measurements from patent US9763922B2 (priority 2014, dated 2017).

This assay has as its target BRD4 BD1 (Homo sapiens (Human), UniProt O60885). Conditions: read-out: BRD4 Alpha IC50.

With `CC(=O)N1CCc2c(c(Nc3ccc(-c4cccc(OC(F)(F)F)c4)cc3)nn2C)C1`, the IC50 (usually the concentration needed to halve the response being measured) worked out at 6.2 µM.

`CC(=O)N1CCc2c(c(Nc3ccc(-c4cnn(C)c4)cc3)nn2CCC(N)=O)C1`: the IC50 was found to be 15.9 µM.

Regarding `CC(=O)N1CCc2c(c(Nc3cccc(C(=O)N(C)C)c3)nn2CC2CC2)C1`, the 50% inhibitory concentration (IC50) came to 9.72 µM.

In the case of `CC(=O)N1CCc2c(c(Nc3ccc(-c4cnn(C)c4C)cc3F)nn2C2CCOC2)C1` (stereo not shown), the IC50 was 5.01 µM.

Consider `CC(=O)N1CCc2c(c(Nc3ccc(-c4cnn(C)c4)cc3Cl)nn2C2CCOC2)C1` (stereo not shown), for which the IC50 was 4.13 µM.

For `CC(=O)N1CCc2c(c(Nc3cccc(C)c3)nn2CCC#N)C1` [Example 214], the IC50 came out at 14.6 µM.

For `CC(=O)N1CCc2c(c(Nc3cccc(C)c3)nn2CCC2CCCNC2)C1` (stereo not shown) [Example 215], the concentration for half-maximal inhibition (IC50) stood at 5.88 µM.
